Literature values, collected in patent US20100226886A1, “Combinations of MTP Inhibitors with Cholesterol Absorption Inhibitors or Interferon for Treating Hepatitis C” (priority 2007, published 2010).

Details: animal studies

NC(=O)c1ncn([C@@H]2O[C@H](CO)[C@@H](O)[C@H]2O)n1 [ribavirin]
developmental toxicity: causes birth defects
